# Experimental data reported in patent US20100311696A1, “TOPICAL SKIN TREATMENT COMPOSITION” (priority 2002, published 2010).
# Settings: PPC-enriched phosphatidylcholine/polyglycol carrier of Example 1
substance,measurement,value
recombinant human insulin,solubility in the carrier,readily soluble
